# Experiment: Inhibition of Helicobacter pylori alpha carbonic anhydrase preincubated for 15 mins by stopped-flow CO2 hydrase assay
smiles,measurement,value
S [HYDROGEN SULFIDE],Ki,690 µM

# Source: ChEMBL document CHEMBL3813622, “Anion inhibition profiles of α-, β- and γ-carbonic anhydrases from the pathogenic bacterium Vibrio cholerae” (Bioorg Med Chem, 2016)
